The test has as its target BCL-XL-glutathione-S-transferase (GST) fusion protein (human) (UniProt Q07817). Kind of test: fluorescence polarisation; BIM BH3 peptides tested for their BCL-XL binding affinity, as described previously [16].

Sequences of proteins named here, by UniProt entry; tags and fusion partners are left off.
UniProt Q07817, whole entry: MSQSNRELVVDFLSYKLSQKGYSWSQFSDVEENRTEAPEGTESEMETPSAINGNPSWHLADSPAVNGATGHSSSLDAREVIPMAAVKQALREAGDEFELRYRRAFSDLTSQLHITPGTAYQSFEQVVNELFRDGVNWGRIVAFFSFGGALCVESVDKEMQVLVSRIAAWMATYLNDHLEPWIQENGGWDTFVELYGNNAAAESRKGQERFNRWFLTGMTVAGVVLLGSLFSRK

On to wild-type BIM BH3 peptide, for which the binding affinity was 4 nM.

The values are drawn from publication PMC12153628.
